Only a part is listed here, and it is no random draw. Calls of active or inactive are those of the source. Cut-off read from the data, not from the text of the source: active = inhibition above about 49%; inactive = the rest.

Amino acid sequences for entries named in this document (tags omitted). A change or cut given only in a name is not applied to a line headed by its entry.
UniProt Q96RJ0: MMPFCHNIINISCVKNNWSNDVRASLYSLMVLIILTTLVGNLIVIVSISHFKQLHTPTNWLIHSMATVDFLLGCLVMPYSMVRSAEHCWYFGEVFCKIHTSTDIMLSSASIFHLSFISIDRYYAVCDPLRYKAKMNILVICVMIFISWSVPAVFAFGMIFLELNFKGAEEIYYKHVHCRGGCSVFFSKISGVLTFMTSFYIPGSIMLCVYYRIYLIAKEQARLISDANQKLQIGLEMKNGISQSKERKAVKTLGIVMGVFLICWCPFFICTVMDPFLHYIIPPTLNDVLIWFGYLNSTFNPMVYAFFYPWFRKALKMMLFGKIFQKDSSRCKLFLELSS

The values below come from PubChem BioAssay AID651785 (The Scripps Research Institute Molecular Screening Center, 2012).

In the test the target is Trace amine-associated receptor 1 (Homo sapiens) (UniProt Q96RJ0). The test is described as follows: human TAAR1 antagonists, retest of hits, confirmation, cell-based, fluorescence (AID 651785).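 Note: CHO-Ga16 host cells challenged with agonist PEA near its EC80; 0% = agonist at EC80 plus vehicle and 100% = vehicle with no agonist.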 To be noted: TAAR1-expressing cells, fluorescence antagonist read-out; at 3 µM; active compounds read high.
Take `Cc1ccccc1OP(=O)(Nc1ccccn1)Oc1ccccc1C`: the inhibition was inactive: 48.1%.

One may read the inhibition as the percentage by which the read-out fell short of the control.
